Earlier results, collected in patent publication US7297691B2, “Treatment of sleep disorders with cholinesterase inhibitors” (priority 2003, dated 2007).

The chains behind the UniProt entries cited, without tags or fusion partners. Residues count along the entry.
UniProt P06276, 29-602: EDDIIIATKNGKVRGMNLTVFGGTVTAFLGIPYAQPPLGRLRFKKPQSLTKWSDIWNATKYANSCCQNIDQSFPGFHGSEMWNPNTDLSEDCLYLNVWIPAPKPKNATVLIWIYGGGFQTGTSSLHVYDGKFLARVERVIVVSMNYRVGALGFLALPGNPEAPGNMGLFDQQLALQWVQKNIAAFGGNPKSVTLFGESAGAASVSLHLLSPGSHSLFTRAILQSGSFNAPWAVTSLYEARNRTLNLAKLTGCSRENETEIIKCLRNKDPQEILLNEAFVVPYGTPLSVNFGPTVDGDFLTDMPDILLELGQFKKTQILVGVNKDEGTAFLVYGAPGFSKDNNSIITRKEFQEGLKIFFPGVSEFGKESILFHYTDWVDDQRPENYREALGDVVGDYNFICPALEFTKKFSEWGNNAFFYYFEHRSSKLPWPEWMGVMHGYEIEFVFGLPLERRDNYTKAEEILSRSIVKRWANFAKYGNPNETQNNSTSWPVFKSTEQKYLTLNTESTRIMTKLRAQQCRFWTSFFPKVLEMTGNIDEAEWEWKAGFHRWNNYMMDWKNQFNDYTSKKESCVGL

Tests used:
[1] = target: T1, butyrylcholinesterase in plasma (Homo sapiens, UniProt P06276); settings: after 10 mg i.v. in a healthy volunteer; cited from earlier work
T1 construct: butyrylcholinesterase in plasma; from tissue; host or cells: plasma of a healthy volunteer after i.v. galantamine

[2] = in humans, cited from earlier work

Substance: [4aS-(4aα,6β,8aR*)]-4a,5,9,10 11,12-hexahydro-3-methoxy-11-methyl-6H-benzofuro[3a,3,2-ef][2]benzazepin-6-ol [Galantamine]
- inhibition of butyrylcholinesterase in plasma [1]: no inhibition
- passing the blood-brain barrier [2]: capable of passing
- passing the blood-brain barrier ([2]; listed as galantamine): capability to pass

Where two headings read alike, the source gives them in different places.
